Measurements published in patent US20110142757A1, “NOVEL COMPOUNDS AND THEIR USES IN DIAGNOSIS” (the University of Sydney, priority 2008, published 2011).
Read-outs that look alike come from different tables or passages of the source.

Amino acid sequences for entries named in this document (tags omitted).
UniProt P30536, whole entry: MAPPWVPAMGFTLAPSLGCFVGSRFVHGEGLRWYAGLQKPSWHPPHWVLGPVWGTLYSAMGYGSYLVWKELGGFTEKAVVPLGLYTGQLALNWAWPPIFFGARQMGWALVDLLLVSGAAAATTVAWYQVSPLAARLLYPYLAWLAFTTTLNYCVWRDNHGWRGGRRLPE

Biological target: human TSPO (Homo sapiens, UniProt P30536)
Experiment: [3H]PK11195 competition binding assay, mitochondrial membranes of HEK293 cells transfected with human TSPO
[1] = read-out: Binding Affinity (Ki) ± Standard Error, Site 1, competition with 6 nM [3H]PK11195, one-site or two-site competition fit
[2] = read-out: Binding Affinity (Ki) ± Standard Error, Site 2, competition with 6 nM [3H]PK11195, two-site competition fit

Structure (SMILES)	Ki [1] [nM]	Ki [2] [nM]
CCN(CC)C(=O)Cc1c(-c2ccc(OCCCCCCCCOc3ccc(-c4nn5c(C)cc(C)nc5c4CC(=O)N(CC)CC)cc3)cc2)nn2c(C)cc(C)nc12	0.332	51.3
CCN(CC)C(=O)Cc1c(-c2ccc(OCCCCCCCCCCCCOc3ccc(-c4nn5c(C)cc(C)nc5c4CC(=O)N(CC)CC)cc3)cc2)nn2c(C)cc(C)nc12	0.052	48.7
CCN(CC)C(=O)Cc1c(-c2ccc(OCCCCCCOc3ccc(-c4nn5c(C)cc(C)nc5c4CC(=O)N(CC)CC)cc3)cc2)nn2c(C)cc(C)nc12	0.009	11.5
CCN(CC)C(=O)Cc1c(-c2ccc(OCCCCOc3ccc(-c4nn5c(C)cc(C)nc5c4CC(=O)N(CC)CC)cc3)cc2)nn2c(C)cc(C)nc12	5.99	–
